Measurements reported in PubChem BioAssay (NCI).
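Exposure lasted 48 hours, with cells grown in 96-well plates and compounds tested at five concentrations. The concentration for 50% growth inhibition is given as GI50. The concentration for full growth arrest is given as TGI.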

Assays:
Experiment in all cases: NCI anticancer screen, dose series, 48 h
[1] = tested on: 786-0 renal
[2] = tested on: A498 renal
[3] = tested on: A549 NSCLC
[4] = tested on: ACHN renal
[5] = tested on: BT-549 breast
[6] = tested on: CAKI-1 renal
[7] = tested on: CCRF-CEM leukemia
[8] = tested on: COLO 205 colon
[9] = tested on: DU-145 prostate
[10] = tested on: EKVX NSCLC
[11] = tested on: HCC-2998 colon
[12] = tested on: HCT-116 colon
[13] = tested on: HCT-15 colon
[14] = tested on: HL-60(TB) leukemia
[15] = tested on: HOP-62 NSCLC
[16] = tested on: HS 578T breast
[17] = tested on: HT29 colon
[18] = tested on: IGROV1 ovarian
[19] = tested on: K-562 leukemia
[20] = tested on: KM12 colon
[21] = tested on: LOX IMVI melanoma
[22] = tested on: M14 melanoma
[23] = tested on: MALME-3M melanoma
[24] = tested on: MCF7 breast
[25] = tested on: MDA-MB-231 breast
[26] = tested on: MDA-MB-435
[27] = tested on: MOLT-4 leukemia
[28] = tested on: NCI-H226 lung
[29] = tested on: NCI-H23 lung
[30] = tested on: NCI-H322M lung
[31] = tested on: NCI-H460 lung
[32] = tested on: NCI-H522 lung
[33] = tested on: NCI/ADR-RES ovarian
[34] = tested on: OVCAR-3 ovarian
[35] = tested on: OVCAR-4 ovarian
[36] = tested on: OVCAR-5 ovarian
[37] = tested on: OVCAR-8 ovarian
[38] = tested on: PC-3 prostate
[39] = tested on: RPMI-8226 leukemia
[40] = tested on: RXF 393 renal
[41] = tested on: SF-268 CNS
[42] = tested on: SF-295 CNS
[43] = tested on: SF-539 CNS
[44] = tested on: SK-MEL-2 melanoma
[45] = tested on: SK-MEL-28 melanoma
[46] = tested on: SK-MEL-5 melanoma
[47] = tested on: SK-OV-3 ovarian
[48] = tested on: SN12C renal
[49] = tested on: SNB-19 CNS
[50] = tested on: SNB-75 CNS
[51] = tested on: SR leukemia
[52] = tested on: SW-620 colon
[53] = tested on: T-47D breast
[54] = tested on: TK-10 renal
[55] = tested on: U251 CNS
[56] = tested on: UACC-257 melanoma
[57] = tested on: UACC-62 melanoma
[58] = tested on: UO-31 renal

SMILES: O=Cc1ccc(N(CCCl)CCCl)cc1Cl
- GI50 [1]: 22 µM
- TGI [1]: 82.7 µM
- GI50 [2]: 43.5 nM
- TGI [2]: 172 nM
- GI50 [3]: 2980 nM
- TGI [3]: 53.6 µM
- GI50 [4]: 31.7 µM
- TGI [4]: > 100 µM
- GI50 [5]: 39.7 µM
- TGI [5]: > 100 µM
- GI50 [6]: 2820 nM
- TGI [6]: 26.6 µM
- GI50 [7]: 6.42 µM
- TGI [7]: > 100 µM
- GI50 [8]: 5.86 µM
- TGI [8]: 23.1 µM
- GI50 [9]: 18.8 µM
- TGI [9]: 98.9 µM
- GI50 [10]: 28.1 µM
- TGI [10]: > 100 µM
- GI50 [11]: 9.3 µM
- TGI [11]: 46.8 µM
- GI50 [12]: 2720 nM
- TGI [12]: 28.5 µM
- GI50 [13]: 29.5 µM
- TGI [13]: > 100 µM
- GI50 [14]: 26.8 µM
- TGI [14]: 73.3 µM
- GI50 [15]: 3.67 µM
- TGI [15]: 46.6 µM
- GI50 [16]: 64 µM
- TGI [16]: > 100 µM
- GI50 [17]: 19.7 µM
- TGI [17]: 66.7 µM
- GI50 [18]: 966 nM
- TGI [18]: 11.3 µM
- GI50 [19]: 22.2 µM
- TGI [19]: > 100 µM
- GI50 [20]: 42 µM
- TGI [20]: > 100 µM
- GI50 [21]: 20.9 µM
- TGI [21]: 62.2 µM
- GI50 [22]: 58.8 µM
- TGI [22]: > 100 µM
- GI50 [23]: 26.1 µM
- TGI [23]: 75.5 µM
- GI50 [24]: 641 nM
- TGI [24]: 27.6 µM
- GI50 [25]: 32.5 µM
- TGI [25]: 74.1 µM
- GI50 [26]: 40.3 µM
- TGI [26]: > 100 µM
- GI50 [27]: 29.1 µM
- TGI [27]: 78.7 µM
- GI50 [28]: 35.1 nM
- TGI [28]: 226 nM
- GI50 [29]: 6.78 µM
- TGI [29]: 70.7 µM
- GI50 [30]: > 100 µM
- TGI [30]: > 100 µM
- GI50 [31]: 139 nM
- TGI [31]: 12.1 µM
- GI50 [32]: 54.4 µM
- TGI [32]: > 100 µM
- GI50 [33]: 22.9 µM
- TGI [33]: > 100 µM
- GI50 [34]: 2210 nM
- TGI [34]: 6.43 µM
- GI50 [35]: 2800 nM
- TGI [35]: 98.6 µM
- GI50 [36]: 861 nM
- TGI [36]: 7.83 µM
- GI50 [37]: 25.1 µM
- TGI [37]: > 100 µM
- GI50 [38]: 24.9 µM
- TGI [38]: > 100 µM
- GI50 [39]: 13.8 µM
- TGI [39]: 74.6 µM
- GI50 [40]: 14.8 µM
- TGI [40]: 51.7 µM
- GI50 [41]: 31.3 µM
- TGI [41]: > 100 µM
- GI50 [42]: 425 nM
- TGI [42]: 9.47 µM
- GI50 [43]: 27.4 µM
- TGI [43]: 77.9 µM
- GI50 [44]: 28.7 µM
- TGI [44]: 78.8 µM
- GI50 [45]: 33.2 µM
- TGI [45]: > 100 µM
- GI50 [46]: 11.3 µM
- TGI [46]: 27.2 µM
- GI50 [47]: 11.1 µM
- TGI [47]: 55.4 µM
- GI50 [48]: 23.6 µM
- TGI [48]: > 100 µM
- GI50 [49]: 32.9 µM
- TGI [49]: > 100 µM
- GI50 [50]: 24.4 µM
- TGI [50]: 86.9 µM
- GI50 [51]: 49.2 µM
- TGI [51]: > 100 µM
- GI50 [52]: 17.8 µM
- TGI [52]: > 100 µM
- GI50 [53]: 1040 nM
- TGI [53]: 18.4 µM
- GI50 [54]: 384 nM
- TGI [54]: 2450 nM
- GI50 [55]: 7.61 µM
- TGI [55]: 50.5 µM
- GI50 [56]: 368 nM
- TGI [56]: 2310 nM
- GI50 [57]: 380 nM
- TGI [57]: 4.1 µM
- GI50 [58]: 18.4 µM
- TGI [58]: 73 µM
